Our source for the Ki values is ChEMBL document CHEMBL1772952, “Further structure-activity relationship studies on 4-((((3S,6S)-6-benzhydryltetrahydro-2H-pyran-3-yl)amino)methyl)phenol: identification of compounds with triple uptake inhibitory activity as potential antidepressant agents” (J Med Chem, 2011).

Protein sequences, listed by entry. Tags and fused reporters are not part of them.
UniProt P31652, whole entry: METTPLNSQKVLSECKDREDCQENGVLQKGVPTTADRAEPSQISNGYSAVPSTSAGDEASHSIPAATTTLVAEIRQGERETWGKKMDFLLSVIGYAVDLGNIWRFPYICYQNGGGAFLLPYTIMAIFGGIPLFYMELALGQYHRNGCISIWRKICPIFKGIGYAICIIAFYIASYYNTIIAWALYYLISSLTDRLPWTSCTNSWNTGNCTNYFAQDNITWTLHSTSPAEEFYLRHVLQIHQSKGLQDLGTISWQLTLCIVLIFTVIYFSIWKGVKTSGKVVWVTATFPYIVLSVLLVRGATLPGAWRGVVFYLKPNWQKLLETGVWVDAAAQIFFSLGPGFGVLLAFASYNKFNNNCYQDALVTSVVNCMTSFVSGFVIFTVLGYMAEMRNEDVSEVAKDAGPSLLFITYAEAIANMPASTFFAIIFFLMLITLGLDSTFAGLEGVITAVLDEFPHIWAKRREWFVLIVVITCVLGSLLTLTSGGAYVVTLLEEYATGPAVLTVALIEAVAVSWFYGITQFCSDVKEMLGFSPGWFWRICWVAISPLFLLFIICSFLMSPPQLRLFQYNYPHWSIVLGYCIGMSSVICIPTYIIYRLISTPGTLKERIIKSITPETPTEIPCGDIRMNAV
UniProt P23977, whole entry: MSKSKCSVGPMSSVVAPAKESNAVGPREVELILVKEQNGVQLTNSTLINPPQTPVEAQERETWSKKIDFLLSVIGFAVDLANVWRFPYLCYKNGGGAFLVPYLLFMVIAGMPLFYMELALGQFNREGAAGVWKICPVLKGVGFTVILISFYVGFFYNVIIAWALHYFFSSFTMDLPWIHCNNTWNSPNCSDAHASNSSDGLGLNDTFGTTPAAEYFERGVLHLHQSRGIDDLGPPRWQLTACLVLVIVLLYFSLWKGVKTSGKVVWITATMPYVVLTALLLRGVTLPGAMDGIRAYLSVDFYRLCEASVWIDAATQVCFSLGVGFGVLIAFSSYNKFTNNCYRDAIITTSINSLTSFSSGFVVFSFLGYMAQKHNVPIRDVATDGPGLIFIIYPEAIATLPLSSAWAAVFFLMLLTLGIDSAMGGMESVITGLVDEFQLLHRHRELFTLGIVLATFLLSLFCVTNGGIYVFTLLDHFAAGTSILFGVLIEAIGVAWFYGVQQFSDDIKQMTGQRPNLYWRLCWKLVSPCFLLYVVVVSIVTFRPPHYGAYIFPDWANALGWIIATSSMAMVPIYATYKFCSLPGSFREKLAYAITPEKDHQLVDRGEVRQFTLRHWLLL

Holding throughout (assay type): tissue-based
Assay [1] concerns the target Sodium-dependent serotonin transporter (Rattus norvegicus, UniProt P31652). Description: Inhibition of SERT in rat cerebral cortex assessed as [3H]serotonin accumulation. Put shortly:
(§1)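 Uptake of [3H]dopamine (DAT, rat striatum) or [3H]serotonin (SERT, rat cerebral cortex) was measured with at least five triplicate concentrations spaced around the IC50. IC50 came from nonlinear curve fitting and was converted to Ki by Cheng-Prusoff. Values are mean ± SEM of 3–8 independent experiments.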

In assay [2] the target is Sodium-dependent dopamine transporter (Rattus norvegicus, UniProt P23977). The assay is described as follows: Inhibition of DAT in rat striatum assessed as [3H]dopamine accumulation. Put shortly: as §1
Assay [3] in a line: Inhibition of NET in rat cerebral cortex assessed as [3H]norepinephrine accumulation. The method, boiled down: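 Rat cerebral cortex tissue; uptake of [3H]norepinephrine via NET measured. At least five concentrations per compound, each in triplicate, spaced evenly around the IC50. IC50 obtained by nonlinear curve fitting, then converted to Ki by Cheng-Prusoff. Values are mean ± SEM of three to eight independent experiments.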

Each structure is given as a SMILES string.

As usually defined, the Ki is a measure of affinity in units of concentration, obtained from inhibition or displacement. In the case of `O[C@@H]1C[C@@H](C(c2ccccc2)c2ccccc2)OC[C@H]1NCc1ccc2[nH]ccc2c1` (single isomer, unassigned), the inhibitory constant (Ki) in assay [1] was 25 nM.
`COc1ccc(CN[C@@H]2CO[C@H](C(c3ccccc3)c3ccccc3)C[C@H]2O)cc1`: the Ki in assay [2] was 37.4 nM; in assay [3] it was 29.3 nM; in assay [1], 14.7 nM.
For `COc1ccc(CN[C@H]2CC[C@@H](C(c3ccccc3)c3ccccc3)OC2)cc1`, the inhibition constant (Ki) in assay [1] worked out at 12.9 nM.
